Assay outcomes deposited in PubChem BioAssay by National Center for Advancing Translational Sciences (NCATS).
Sampled rows, rich in hits. Any-hit rate of the full collection: about 13%.
Sfp PPTase inh – blocks B. subtilis Sfp PPTase activity; Q9F4F7; Biochemical Sfp PPTase activity, qHTS; Potency, µM, for the others: max response, negative = inhibition, most hits filed as inhibitors; actives 3.5% (n = 310,000); AID 1490; active = well fitted inhibition curve with a large enough effect; inconclusive = small, poorly fitted or top-dose-only effect, or another doubt; inactive = no such curve, though single readings can be large or run the other way;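 also: the enzyme is Sfp with the accession as filed and its product quenches rhodamine fluorescence; potency is read from the fitted curve at half-maximal effect; 0% = enzyme reaction without inhibitor and -100% = no enzyme wells; top concentration of the series not given in the record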
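Step 1, compound plus 15 nM Sfp-PPTase, 15 min, room temperature. Step 2, add rhodamine-CoA (5 uM) and BHQ-2-YbbR (12.5 uM). Step 3, read 525/598 nm fluorescence at 0 and 30 min.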
Lamin A splicing – modulators of lamin A splicing. HeLa LMNA splicing GFP/RFP minigene ratio, 48 h. 0.01% of 200,000 active. Potency, µM (titrated, usually from 46.1 µM), for the others: top-dose ratio change, negative = inhibition, actives largely listed as inhibitors; active means well fitted inhibition curve with a large enough effect in the signal ratio, with a control signal flat, not every such curve was filed as active; inconclusive means small, poorly fitted or top-dose-only effect, or effect the other way, or a change in a side signal; the % refers to the signal ratio; further: potency means the concentration at half of the fitted maximal effect; on the % scale 0 is the no-effect control and ±100 the full control effect
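S3 HeLa stable clones carrying a lamin A-EGFP splicing minigene plus DsRed2 were seeded at 600 cells/well in Opti-MEM with 2% FBS, pin-dosed and incubated 48 h at 37°C. Acumen cytometry (488 nm) gave the GFP/RFP total-intensity ratio.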
G9a inh – G9a (human) methyltransferase inhibition; G9a H3K9 monomethylation, AlphaScreen, 2 h; Potency, µM (highest dose often 102 µM), for inactives: at the top dose activity, negative = inhibition, hits mostly inhibitors; 8.8% of 350,000 active; further: potency means the concentration at half of the fitted maximal effect; on the % scale 0 is the no-effect control and ±100 the full control effect; nearly all actives have a fitted effect of over 75% in size
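Readings reflect AlphaScreen signal from monomethyl-H3K9 antibody detection. HMT at 20 nM; substrate b-H3K9 500 nM; cofactor SAM 20 uM; 2 h RT reaction; compounds tested as titrations in qHTS with 15 min preincubation.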
ALDH1A1 block – blocks purified human ALDH1A1 activity | Potency, µM (doses to about 75.3 µM), without a hit: at the highest dose activity, negative = inhibition, usual class: inhibitors | Purified ALDH1A1, NADH fluorescence, propionaldehyde substrate | 7.3% of 220,000 active | P00352; active means well fitted inhibition curve with a large enough effect, not every such curve was filed as active; inconclusive means small, poorly fitted or top-dose-only effect, or another doubt; inactive means no such curve, though single readings can be large or run the other way;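 further: potency means the concentration at half of the fitted maximal effect; plate controls were no enzyme wells and a reference inhibitor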
miR-21 FLuc – miR-21 reporter, rising signal | AID 2288 | HeLa miR-21 FLuc reporter, luciferase, 48 h | 340,000 tested, under 10 active | Potency, µM (titrated, usually from 38.3 µM), for the others: at the top dose reporter change, positive = more light; active = well fitted rising curve with a large enough effect; inconclusive = small, poorly fitted or top-dose-only effect; inactive = no such curve, though single readings can be large or run the other way;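 also: % of control where 0% means no effect; miR-21 action dims this reporter so a rising signal means less miR-21 action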
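HeLa cells stably expressing CMV-driven firefly luciferase with a downstream miR-21 binding sequence, endogenously expressing miR-21, were treated with titrations (up to about 40uM final) for 48 hours at 37 degree Celsius. Luciferase luminescence was read after lysis.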
KDM4E inh – inhibitors of human JMJD2E histone demethylase; B2RXH2; JMJD2E catalytic domain, FDH-coupled NADH fluorescence (FDH is formaldehyde dehydrogenase); Potency, µM (doses to about 57.1 µM), inactives show at the highest dose activity change, negative = inhibition, actives largely listed as inhibitors; 1.6% of 230,000 active; AID 2147; active means well fitted inhibition curve with a large enough effect, not every such curve was filed as active; inconclusive means small, poorly fitted or top-dose-only effect, or another doubt; inactive means no such curve, though single readings can be large or run the other way;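 further: potency means the concentration at half of the fitted maximal effect; 0% = wells with enzyme and -100% = buffer wells without enzyme; nearly all actives have a fitted effect of over 50% in size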
Active calls of the source: *; ? = inconclusive; . = no result given; [ ] = remark or other dose. Unless noted, the call rests on the fitted dose curve; in most records, active means well fitted curve in the direction sought with a large enough effect; inconclusive means small, poorly fitted or top-dose-only effect, or another doubt; inactive means no such curve, though single readings can be large; an effect the other way counts as inactive or inconclusive.

No.	compound	Sfp PPTase inh	Lamin A splicing	G9a inh	ALDH1A1 block	miR-21 FLuc	KDM4E inh
1	C[C@@H]1C(=O)N(S(=O)(=O)c2ccc([N+](=O)[O-])cc2)[C@H]1c1ccc(F)cc1	22%	.	.	.	.	.
2	COc1cccc(C2CC(=O)Nc3c2c(=O)n(C)c2ncnn32)c1OC (stereo unspecified)	.	.	-14%[59 µM]	.	-12%	.
3	CC(C)(C)C1CCc2c(sc(NC(=O)c3ccncc3)c2C(N)=O)C1 (stereo unspecified)	-16%	-16%	-6%[59 µM]	-5%	-27%	2%
4	CC(C)(C)C1CCc2c(sc(NC(=O)c3cc4ccccc4c(=O)o3)c2C(N)=O)C1 (stereo unspecified)	.	.	10µM*	.	-7%	.
5	COc1ccc(CNc2nc3ccc(C)cc3s2)c(OC)c1OC	2%	.	15%	.	-3%	.
6	Cc1ccc(S(=O)(=O)/C(=C/Cl)NC(=O)c2ccccc2)cc1	10%	?	-2%[59 µM]	7.9µM*	26%	5%
7	Cc1ccc(C(=O)NC(=C(Cl)Cl)S(=O)(=O)c2ccc(C)cc2)cc1	19%	?	?	?	14%	2%
8	Cc1ccc(S(=O)(=O)N2CCCC2)cc1C(=O)NCCOc1ccccc1	.	.	1%[12.7 µM]	.	.	.
9	NC(=O)c1oc2ccc(Cl)cc2c1N	5%	8%	?	?	0%	?
10	Nc1c(C(=O)CCC(=O)O)oc2ccc(Cl)cc12	-13%	0%	56µM*	?	-9%	?
11	CC(C)CSC1=NSC2=NC(=O)/C(=C\c3coc4ccccc4c3=O)C(=N)N12	-20%	.	79µM*	?	-32%	?
12	N=C1/C(=C\c2coc3ccc(O)cc3c2=O)C(=O)N=C2SC=CN12	?	-11%[46 µM]	.	16µM*	12%	0%
13	N=C1/C(=C/c2coc3ccccc3c2=O)C(=O)N=C2SC(c3ccco3)=NN12	40µM*	.	.	.	-7%	?
14	CCC1=NN2C(=N)/C(=C/c3cc(C)n(Cc4ccccc4)c3C)C(=O)N=C2S1	0%	.	-4%	-4%	1%	?
15	N=C1/C(=C\c2coc3ccccc3c2=O)C(=O)N=C2SC(c3ccncc3)=NN12	-19%	.	?	.	3%	281%
16	Cc1cc(/C=C2\C(=N)N3N=C(c4ccco4)SC3=NC2=O)c(C)n1Cc1ccccc1	?	.	28µM*	?	?	?
17	CSC1=NSC2=NC(=O)/C(=C\c3coc4ccccc4c3=O)C(=N)N12	-4%	-22%	?	?	-12%	?
18	COC(=O)c1c(NC(=O)c2cccc(S(=O)(=O)N3CCN(C)CC3)c2)sc(C)c1C	.	.	22%[2.33 µM]	.	.	.
19	O=C(c1ccccc1)N1CCN(C2CCCCCC2)CC1	-14%	14%	?	6%	-5%	?
20	O=C(c1ccc(F)cc1)N1CCN(C2CCCCC2)CC1	-20%	.	32µM*	.	-1%	.
21	O=C(c1cccc(F)c1)N1CCN(C2CCCCC2)CC1	-3%	2%	22µM*	-13%	-1%	-29%
22	O=C(NCCN1CCOCC1)C1(C(F)(F)F)C/C(=C\CCO)CCCO1 (stereo unspecified)	-2%	.	.	.	.	.
23	N#Cc1c(N)n(Cc2ccccc2)c(=O)c2cc([N+](=O)[O-])ccc12	7%	.	24%	.	-10%	.
24	Cn1c(N)c(-c2ccccc2)c2ccc([N+](=O)[O-])cc2c1=O	-20%	.	35µM*	.	10%	.
25	COc1ccc(-c2csc(N(CCCN3CCOCC3)C(=O)CCl)n2)cc1	?	.	35µM*	.	-7%	.
26	CSc1nnc(-c2cc3c(s2)-c2ccccc2CC3)o1	18µM*	-5%	375%[59 µM]	?	-61%	?
27	S=c1[nH]nc(-c2cc3c(s2)-c2ccccc2CC3)o1	?	-7%	?	?	-44%	?
28	CCCNC(=O)CSc1nc2ccccc2nc1Cc1ccc(Cl)cc1	.	?	12%[59 µM]	.	0%	.
29	Cc1ccc(NC(=O)CCNC(=O)c2ccc(Br)cc2)nc1	14%	.	25%	.	-23%	.
30	Cc1c(Cl)cccc1N=Cc1ccc([N+](=O)[O-])s1	0%	?	?	?	?	22µM*
31	Sc1oc(-c2ccccc2)cc1C=Nc1ccccc1	-15%	-6%	0.89µM*	?	-23%	-3%
32	Oc1oc(-c2ccccc2)nc1C=Nc1ccccc1	-12%	6%	?	?	-48%	5%
33	O=C(COC(=O)c1ccc2ccccc2n1)Nc1ncc(C(F)(F)F)cc1Cl	4%	-1%	45µM*	11%	-2%	-4%
34	O=C(COC(=O)c1ccc(O)cc1)Nc1ncc(Cl)cc1Cl	7%	?	?	28µM*	-1%	-11%
35	Cc1ccc(C(=O)OCC(=O)Nc2ccc(N(C)C)cc2)cc1NC(=O)c1ccco1	11%	19%	?	12µM*	-3%	4%
36	CCC(C)c1ccccc1NC(=O)COC(=O)c1ccc(C)c(NC(=O)c2ccco2)c1 (stereo unspecified)	13%	1%	?	40µM*	-7%	-4%
37	O=C(COC(=O)c1ccc2c(c1)OCO2)Nc1ncc(Cl)cc1Cl	1%	3%	-1%[59 µM]	1%	0%	?
38	Cc1ccc(C(=O)OCC(=O)Nc2ccccc2)cc1NC(=O)c1ccco1	10%	11%	8%[59 µM]	-4%	-19%	2%
39	O=C(COC(=O)c1ccc2ccccc2c1)Nc1ncc(C(F)(F)F)cc1Cl	7%	7%	13%[12.7 µM]	-14%	0%	?
40	Clc1ccccc1CNCC1CCC(CNCc2ccccc2Cl)CC1 (stereo unspecified)	-1%	.	.	-1%	.	1%
